Assay results taken from ChEMBL document CHEMBL5543160, “Psychoplastogenic DYRK1A Inhibitors with Therapeutic Effects Relevant to Alzheimer's Disease” (J Med Chem, 2024).
Active and inactive are the calls of the source. The rule behind the calls is not given here.

Biological target: Dual specificity tyrosine-phosphorylation-regulated kinase 1A (Homo sapiens, UniProt Q13627)
Test: Inhibition of DYRK1A (unknown origin) at 10 uM by DiscoverX KINOMEscan assay

In the case of `COc1ccc2c3ccnc(C)c3n(CCN(C)C)c2c1.O=C(O)/C=C/C(=O)O`, the inhibition is reported as “Active”.
